# Ab-14 heavy chain CDR variants: yeast mating affinities

Data: MIT Lincoln Laboratory AlphaSeq set, Li et al. 2023, doi:10.1038/s41467-023-39022-2, as distributed in FLAb.

Antigen: PDVDLGDISGINAS, a 14-residue peptide of the SARS-CoV-2 spike HR2 region.

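Designed CDR sequences, proposed from the first random library and measured here. Several design methods are mixed in this list. Affinity was read by AlphaSeq, a pooled yeast mating assay with surface-displayed partners. After mating in shaken culture at 30 °C for 16 h, diploids were selected and their barcode pairs sequenced. Scores were corrected for input abundance and mapped to Kd with protein pairs of known affinity run in the same pool. The assay was run in six technical replicates.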

Parent: Ab-14, a human scFv built as VH, three GGGGS repeats, VL. Only the CDRs of the heavy chain vary.
VH: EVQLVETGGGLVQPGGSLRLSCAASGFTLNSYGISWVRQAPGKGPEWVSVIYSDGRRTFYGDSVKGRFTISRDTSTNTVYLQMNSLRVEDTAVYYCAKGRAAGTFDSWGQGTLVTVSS
VL: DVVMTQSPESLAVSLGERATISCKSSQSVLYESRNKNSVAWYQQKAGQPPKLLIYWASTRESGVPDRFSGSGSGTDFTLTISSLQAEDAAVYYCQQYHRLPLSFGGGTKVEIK

Each variant is given by its three heavy chain CDRs, as the data file delimits them; those of the parent are GFTLNSYGIS, VIYSDGRRTFYGDSVK, GRAAGTFDS.
Values are log10 of the apparent Kd in nM; lower means stronger binding.
The mean shown is taken over the replicates in which the pair was detected.
A pair that was not seen in any replicate is written "nd"; this usually means weak binding, but a binder can also be missed.
In the paper, a design with two or fewer of six values counts as a poor binder.
The range of this assay differs from that of the first round, and the authors advise against merging the two.
As a blank, each scFv also met three strains without target: over all heavy chain designs, 1% of these pairings were detected, typically at 2.08 and seldom below 0.84.

CDR-H1,CDR-H2,CDR-H3,"mean, log10 nM",replicates with signal
GFDLNEYGIS,VIYADGKRTAYADAVK,GNVAGTFDV,-0.77,6 of 6
GFNLNSYGIS,VIYSDGRRTFYVDDVK,GRQAGTFDT,0.82,6 of 6
GFSLNEYGIS,VIYSDGRRTFYGDSVK,GRYAGTFDT,0.62,5 of 6
GFDLNEYGIS,VIYADGMRTYYADDVK,GNTAGTFDI,-0.70,6 of 6
GFSLNQYGIS,VIYSDGRRTFYGDSVK,GRNAGTFDS,0.05,6 of 6
GFTLDSYGIS,VIYSDGRRTFYADSVK,GRQAGTFDS,0.53,6 of 6
GYDLNEYGIS,VIYADGRRAAYIDDVK,GEVNDGVLV,nd,0 of 6
GFDLNSYGIS,VIYSDGRRTFYGDSVK,GRAAWTFDD,2.51,1 of 6
GFYLNSYGIS,VIYSDGRRTFYGDSVK,GKTAGTFDV,1.51,4 of 6
GFDLDEYGIS,VIYADGMRTAYADNVK,GNVAGTFDI,-0.71,6 of 6
GFNLNEYGIS,VIYADGRRSFYSDSVK,GEEAGTFDV,-0.73,6 of 6
GFTLNSYGIS,VIYADGRRTFYGDSVK,GFAEGTFDS,1.96,1 of 6
GFDLNEYGIS,VIYADGRRTFYTDSVK,GTDAGTFDV,nd,0 of 6
GFDLNEYGIS,VIYADGMRTQYIDSVK,GNAAGTFDQ,0.03,6 of 6
GFDLNEYGIS,VIYADGVRTFYVDSVK,GETAGTFDE,-0.37,6 of 6
GMDLGEYGIS,VIYADGVRQSYVDKVK,GFNGVDLLV,2.49,5 of 6
GFTLNEYGIS,VIYSDGWRTFYGDSVK,GRTAGTFDT,1.34,6 of 6
GFELNSYGIS,VIYSDGRRTFYADSVK,GWTAGTFDS,0.22,6 of 6
GFSLNSYGIS,VIYSDGRRTFYGDSVK,GKLAGTFDS,nd,0 of 6
GFTLNEYGIS,VIYSDGRRTFYHDSVK,GRSAGTFDS,1.16,6 of 6
GFTLNEYGIS,VIYSDGRRTFYGDSEK,GRAAVTFDQ,nd,0 of 6
GFTLSSYGIS,VIYSDGRRTFYGDSVK,GRAAGTFDS,2.38,5 of 6
GFGLNAYGIS,VIYSDGRRTFYGDSVK,GRTAGTFDS,0.84,6 of 6
GFDLNEYGIS,VIYADGRRKFYADKVK,GEVAGTFNV,-0.41,6 of 6
GFDLDEYGIS,VIYADGKRTAYSDSVK,GGNAGTFDV,-0.06,6 of 6
GFELNSYGIS,VIYSDGRRTFYADSVK,GKTAGTFDT,0.40,6 of 6
GFDLNSYGIS,VIYSDGRRTFYGDSVK,GRAAGSFNS,nd,0 of 6
GFDLNSYGIS,VIYSDGRRTFYQDRVK,GQAAGTFDS,2.02,5 of 6
GFSLNSYGIS,VIYSDGKRTFYADNVK,GQAAGTFDS,1.16,6 of 6
GFDLDEYGIS,VIYADGRRTFYQDSVK,GQSAGTFDQ,0.62,4 of 6
GFALDEYGIS,VIYADGTRSAYIETVK,GHSGADFIV,nd,0 of 6
GFELNEYGIS,VIYSDGRRTFYGDSVK,GRHAGTFDS,0.37,3 of 6
GFTLNEYGIS,VIYSDGRKTFYGDSVK,GRAAGTFPS,nd,0 of 6
GFDLNDYGIS,VIYADGRRTAYTDSVK,GEVAGTFDS,-0.21,6 of 6
GFHLNDYGIS,VIYSDGRRTWYIDSVK,GRAAGTFDS,1.30,2 of 6
GFTLNSYGIS,VIYADGRRTFYGDSVK,GRTAGTFDS,1.57,6 of 6
GFVLNNYGIS,VIYSDGRRTFYDDSVK,GQLAGTFDS,1.24,6 of 6
GFDLDEYGIS,VIYADGQRTAYADDVK,GNQAGTFDV,-0.11,6 of 6
GFALNSYGIS,VIYSDGRRTFYGDSVK,GRAAGTFRS,nd,0 of 6
GFTLNDYGIS,VIYSDGRRTQYIDSVK,GRAAGTFES,nd,0 of 6
GFDVDEYGIS,VIYADGKRSMYANKVK,GGIGGMFFV,2.36,1 of 6
KFNLNSYGIS,VIYSDGRRTFYADSVK,GQAAGTFDS,nd,0 of 6
GFTLNSYGIS,VIYSDGKRTFYSDSVK,GRSAGTFDS,1.19,5 of 6
GFSLNEYGIS,VIYSDGRRTFYIDSVK,GQAAGTFDK,nd,0 of 6
GFHLNSQGIS,VIYADGRRTFYTDSVK,GRIAGTFDS,0.29,6 of 6
GFTLNSYGIS,VIYADGRRTFYGDSVK,GRAAGTFWL,2.15,3 of 6
GFTLNEYGIS,VIYSDGRRTFYTDSVK,GRFAGTFNS,1.09,1 of 6
GFDLESYGIS,VIYADGRRSAYHDSVK,GTNGSVSFV,nd,0 of 6
GFQLNSYGIS,VIYSDGRRTVYGDSVK,GRLAGTFDS,nd,0 of 6
GFNLNSYGIS,VIYSDGKRTFYGDSVK,GRAAGTFDS,0.92,6 of 6
GFDLNEYGIS,VIYADGKRTYYADSVK,GNNAGTFDI,-0.41,6 of 6
GFHLNSYGIS,VIYADGRRTFYGDSVK,GQAAGTFDS,0.95,6 of 6

The 5 strongest on average among those seen in every replicate, once more:

CDR-H1	CDR-H2	CDR-H3	mean, log10 nM	replicates with signal
GFDLNEYGIS	VIYADGKRTAYADAVK	GNVAGTFDV	-0.77	6 of 6
GFNLNEYGIS	VIYADGRRSFYSDSVK	GEEAGTFDV	-0.73	6 of 6
GFDLDEYGIS	VIYADGMRTAYADNVK	GNVAGTFDI	-0.71	6 of 6
GFDLNEYGIS	VIYADGMRTYYADDVK	GNTAGTFDI	-0.70	6 of 6
GFDLNEYGIS	VIYADGRRKFYADKVK	GEVAGTFNV	-0.41	6 of 6